{"sequences": {"note": "Sequences of proteins named here, by UniProt entry; tags and fusion partners are left off.", "UniProt Q7Z2W7, whole entry": "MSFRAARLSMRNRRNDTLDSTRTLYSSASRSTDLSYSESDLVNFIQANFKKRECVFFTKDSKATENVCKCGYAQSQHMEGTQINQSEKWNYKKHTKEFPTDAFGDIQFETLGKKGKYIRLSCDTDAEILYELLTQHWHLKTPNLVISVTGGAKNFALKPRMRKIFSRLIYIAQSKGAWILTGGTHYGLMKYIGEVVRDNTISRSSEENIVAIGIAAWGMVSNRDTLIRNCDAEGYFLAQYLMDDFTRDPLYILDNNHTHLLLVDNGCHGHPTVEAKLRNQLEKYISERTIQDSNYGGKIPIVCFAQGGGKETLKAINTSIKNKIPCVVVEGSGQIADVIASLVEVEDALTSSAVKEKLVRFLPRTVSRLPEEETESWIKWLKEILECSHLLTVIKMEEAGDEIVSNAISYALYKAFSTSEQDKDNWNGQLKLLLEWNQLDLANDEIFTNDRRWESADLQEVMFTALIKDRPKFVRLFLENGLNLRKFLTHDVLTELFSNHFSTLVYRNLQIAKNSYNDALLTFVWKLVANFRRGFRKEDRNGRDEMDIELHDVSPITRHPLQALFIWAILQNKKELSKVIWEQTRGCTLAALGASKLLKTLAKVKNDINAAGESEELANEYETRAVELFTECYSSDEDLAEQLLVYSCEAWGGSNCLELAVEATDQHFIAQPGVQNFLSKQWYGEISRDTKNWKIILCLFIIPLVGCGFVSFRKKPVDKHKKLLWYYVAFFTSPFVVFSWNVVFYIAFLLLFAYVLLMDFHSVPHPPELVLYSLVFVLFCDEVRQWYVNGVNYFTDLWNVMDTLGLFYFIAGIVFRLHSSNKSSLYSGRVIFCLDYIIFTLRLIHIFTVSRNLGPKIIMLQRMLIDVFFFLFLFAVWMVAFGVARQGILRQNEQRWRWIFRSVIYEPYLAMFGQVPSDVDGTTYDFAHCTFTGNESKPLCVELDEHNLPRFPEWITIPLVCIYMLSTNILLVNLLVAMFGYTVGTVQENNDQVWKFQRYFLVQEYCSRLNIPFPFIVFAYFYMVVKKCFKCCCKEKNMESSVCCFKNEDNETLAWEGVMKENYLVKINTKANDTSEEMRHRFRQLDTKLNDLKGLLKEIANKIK"}, "source": "patent US9487488B2", "about": "“Sulfonamide compound” (MITSUBISHI TANABE PHARMA CORPORATION, priority 2012, dated 2016)", "target": "human TRPM8 (Homo sapiens (Human), UniProt Q7Z2W7)", "assay": "TRPM8 inhibition assay (menthol-induced calcium influx, FDSS)", "format": "cell-based", "conditions": "read-out: TRPM8 Blocking Test (IC50/nmol/L)", "protocol": "The functional activity of a test compound was determined by measuring change in intracellular calcium concentration using a calcium sensitive fluorescent dye. The change in fluorescent signal was measured by the cell imaging technology by Hamamatsu Photonics's Functional Drug Screening System (FDSS).\nHEK293 cells stably expressing human TRPM8 were grown in a flask. On assay day, the culture medium was removed from the flask, and cells were washed with phosphate-buffered saline (PBS) and harvested with PBS containing 2 mmol/L of ethylenediaminetetraacetic acid disodium salt (EDTA-2Na). […] Subsequently, suspended 20,000 to 50,000 cells per well were incubated with a test compound (at varying concentrations) in each well at 37° C. for 20 minutes. Change in intracellular calcium concentration evoked by 100 μmol/L of menthol was measured for 2 minutes using FDSS. […] The concentration-response curve was generated using the average of quadruplicate wells for each data point."}
{"compound": "Cc1c(N(Cc2ccc(OC(F)(F)F)cc2)S(=O)(=O)c2ccc(-c3ncn[nH]3)cc2)nc(C2CC2)c2ccccc12", "note": "[Example 19]", "values": [{"measurement": "IC50", "result": 3.5, "unit": "nmol/L"}]}
